Our source for the fold change (FC) values is ChEMBL document CHEMBL1275363, “Design, synthesis, crystal structures, and antimicrobial activity of sulfonamide boronic acids as β-lactamase inhibitors” (J Med Chem, 2010).

By UniProt entry, the sequences of proteins in these tests, tags left out. Chains listed by the source or under a name are the forms on record and can include a tag or linker.
UniProt Q9L5C7, as listed by the source: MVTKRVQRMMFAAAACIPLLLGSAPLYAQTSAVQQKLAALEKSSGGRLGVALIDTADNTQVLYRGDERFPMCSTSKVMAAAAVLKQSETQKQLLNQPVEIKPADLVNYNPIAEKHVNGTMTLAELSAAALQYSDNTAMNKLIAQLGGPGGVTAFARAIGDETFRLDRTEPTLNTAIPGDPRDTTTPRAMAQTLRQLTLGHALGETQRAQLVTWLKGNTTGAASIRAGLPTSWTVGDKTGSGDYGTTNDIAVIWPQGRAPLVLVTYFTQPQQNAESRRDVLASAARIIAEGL

Experiment [1] relates to Citrobacter freundii. Kind of experiment: Inhibition of Citrobacter freundii beta-lactamase class C assessed as fold decrease in Ceftazidime MIC […]. In short, it runs like this: (§1)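 MICs were measured on clinical isolates following CLSI guidelines in Mueller-Hinton medium. Inhibitor was dissolved in 50% DMSO, with final DMSO below 5%, and combined with ceftazidime at a 1:1 β-lactam:inhibitor ratio. Fold change is compared with ceftazidime alone. Values are means of three independent experiments.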
(In general: Agar diffusion results depend on both activity and mobility in agar.)

Experiment [2] concerns the target AmpC (Klebsiella pneumoniae) (UniProt Q84AD8). The experiment in a line: Inhibition of Klebsiella pneumoniae AmpC beta-lactamase DHA-1 assessed as fold decrease in Ceftazidime MIC […]. Put shortly:
as §1

Experiment [3] relates to Pseudomonas aeruginosa. The experiment in a line: Inhibition of Pseudomonas aeruginosa beta-lactamase class C assessed as fold decrease in Ceftazidime MIC […]. Put shortly: as §1
Experiment [4] deals with Beta-lactamase CTX-M-14 (Escherichia coli) (UniProt Q9L5C7). Kind of experiment: Inhibition of Escherichia coli class A beta-lactamase CTX-M-14 assessed as fold decrease in Ceftazidime MIC […]. In short, it runs like this: as §1
The subject of experiment [5] is Enterobacter cloacae. Kind of experiment: Inhibition of Enterobacter cloacae beta-lactamase class C assessed as fold decrease in Ceftazidime MIC […]. Put shortly:
as §1

`O=C(O)c1ccc(CS(=O)(=O)NCB(O)O)cc1`: the fold change (FC) in experiment [1] was 8; in experiment [2] it was 8; in experiment [3] it was 8; in experiment [4], 16; in experiment [5], 8.
